Test results reported in paper PMC7612365 (Cancer Discovery, 2021).

Test system: ACVR1^R206H HSJD-DIPG-007 cells
Assay: Western blot of signalling in HSJD-DIPG-007 cells
Type: cell-based, human

SMILES	inhibition of phosphorylated SMAD1/5/8	ID1 expression (single agent)
CO[C@H]1C[C@@H]2CC[C@@H](C)[C@@](O)(O2)C(=O)C(=O)N2CCCC[C@H]2C(=O)O[C@H]([C@H](C)C[C@@H]2CC[C@@H](OCCO)[C@H](OC)C2)CC(=O)[C@H](C)/C=C(\C)[C@@H](O)[C@@H](OC)C(=O)[C@H](C)C[C@H](C)/C=C/C=C/C=C/1C [everolimus]	not observed	reduction
COc1cc2c(Nc3ccc(Br)cc3F)ncnc2cc1OCC1CCN(C)CC1 [vandetanib]	concentration-dependent inhibition	–
